This is an account of results in patent publication US6207397A, “In vitro fluorescence polarization assay” (ARIAD Pharmaceuticals, Inc., priority 1997, dated 2001).

The target of the test is T1, Src-SH2 (Homo sapiens, UniProt P12931).
T1 construct: Human Src encoding residues 145-251; made in house; host or cells: E. coli BL21 (DE3), pT7 expression vector
Nature of the test: Fluorescence polarization Src-SH2 competition assay with peptides. The format is binding. The conditions noted are these: TABLE 1; fixed probe and Src-SH2, increasing peptide; read-out: Peptide competitive IC50. The method, then: All polarization methods were performed on an FPM2 96-well plate reader (Jolley), with standard cutoff filters (excitation=485 nm; emission=530 nm). Saturation experiments were used to explore various conditions for the assay, with the aim of maximizing the protein and assay stability, and of determining Kd s of the protein/probe interaction.
For competition experiments, fixed concentrations of probe and protein were used, and increasing concentrations of peptides were added.
All buffer components were low-fluorescence grade (Panvera Corporation). Standard (STD) buffer contains 20 mM phosphate (pH 7.4), 100 mM NaCl, 2 mM DTT, 1 mM EDTA, and 100 ug/ml BGG. Standard buffer is prepared by preparing NaCl, EDTA and phosphate stocks in Millipore water or the cleanest available water supply. The buffer is brought to volume in the same clean water.
The SRC protein is used at a concentration of 0.75 uM final. An example of SRC stock solution is 416.6 uM in STD buffer. […] It is desirable to make a 2× stock of this. For assays where the tighter-binding pYpYpYIE probe is used, the Src protein concentration can be reduced to 150 nM. In general, the concentration of the protein can be adjusted to match the affinity of the probe.
Fluor-GpYEEI is used as the probe at a concentration of 20 nM final. The probe stock sent is 10 uM in STD buffer.
(In fluorescence polarisation assays a small probe gives low polarisation when free and higher when bound to something large.)

What is called IC50 is the concentration needed to halve the response being measured.

With Ac-pYEEI, the IC50 is 8 µM.
